Data published in US12595269B2, “Morpholine-like monoamine releasers” (Solvonis Therapeutics Ireland Holdings Limited, priority 2022, dated 2026).

The chains behind the UniProt entries cited, without tags or fusion partners.
UniProt P31652, whole entry: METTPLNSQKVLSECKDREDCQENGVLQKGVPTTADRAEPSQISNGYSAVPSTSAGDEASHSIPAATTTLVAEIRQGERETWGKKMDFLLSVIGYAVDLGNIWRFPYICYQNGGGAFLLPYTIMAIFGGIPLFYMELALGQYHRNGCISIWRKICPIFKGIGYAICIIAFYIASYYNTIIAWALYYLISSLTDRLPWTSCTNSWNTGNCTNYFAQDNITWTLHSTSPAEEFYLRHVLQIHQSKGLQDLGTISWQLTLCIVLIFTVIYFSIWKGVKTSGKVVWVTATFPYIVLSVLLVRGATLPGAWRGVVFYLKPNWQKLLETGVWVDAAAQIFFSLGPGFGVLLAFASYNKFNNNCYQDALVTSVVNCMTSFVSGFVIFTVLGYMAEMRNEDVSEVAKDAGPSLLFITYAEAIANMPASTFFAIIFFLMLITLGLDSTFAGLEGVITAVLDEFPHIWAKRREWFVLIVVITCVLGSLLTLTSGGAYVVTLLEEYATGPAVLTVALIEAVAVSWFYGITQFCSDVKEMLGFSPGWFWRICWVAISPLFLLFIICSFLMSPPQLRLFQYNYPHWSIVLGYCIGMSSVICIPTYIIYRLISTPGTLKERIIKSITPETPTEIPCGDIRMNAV
UniProt P23977, whole entry: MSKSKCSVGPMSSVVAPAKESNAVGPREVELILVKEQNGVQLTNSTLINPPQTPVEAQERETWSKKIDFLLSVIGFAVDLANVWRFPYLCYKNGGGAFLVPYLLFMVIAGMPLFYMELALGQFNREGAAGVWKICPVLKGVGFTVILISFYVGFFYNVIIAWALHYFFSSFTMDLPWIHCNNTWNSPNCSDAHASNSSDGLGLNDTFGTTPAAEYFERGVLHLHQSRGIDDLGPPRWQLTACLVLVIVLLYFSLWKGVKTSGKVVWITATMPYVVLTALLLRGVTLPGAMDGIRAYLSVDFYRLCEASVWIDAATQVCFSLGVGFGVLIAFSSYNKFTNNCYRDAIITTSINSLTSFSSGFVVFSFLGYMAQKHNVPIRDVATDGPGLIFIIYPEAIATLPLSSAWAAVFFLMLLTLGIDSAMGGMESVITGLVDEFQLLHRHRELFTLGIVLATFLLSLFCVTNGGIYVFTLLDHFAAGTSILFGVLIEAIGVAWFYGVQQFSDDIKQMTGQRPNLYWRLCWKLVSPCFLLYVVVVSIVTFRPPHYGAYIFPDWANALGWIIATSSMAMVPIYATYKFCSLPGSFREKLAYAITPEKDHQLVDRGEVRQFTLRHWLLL
UniProt P31645, whole entry: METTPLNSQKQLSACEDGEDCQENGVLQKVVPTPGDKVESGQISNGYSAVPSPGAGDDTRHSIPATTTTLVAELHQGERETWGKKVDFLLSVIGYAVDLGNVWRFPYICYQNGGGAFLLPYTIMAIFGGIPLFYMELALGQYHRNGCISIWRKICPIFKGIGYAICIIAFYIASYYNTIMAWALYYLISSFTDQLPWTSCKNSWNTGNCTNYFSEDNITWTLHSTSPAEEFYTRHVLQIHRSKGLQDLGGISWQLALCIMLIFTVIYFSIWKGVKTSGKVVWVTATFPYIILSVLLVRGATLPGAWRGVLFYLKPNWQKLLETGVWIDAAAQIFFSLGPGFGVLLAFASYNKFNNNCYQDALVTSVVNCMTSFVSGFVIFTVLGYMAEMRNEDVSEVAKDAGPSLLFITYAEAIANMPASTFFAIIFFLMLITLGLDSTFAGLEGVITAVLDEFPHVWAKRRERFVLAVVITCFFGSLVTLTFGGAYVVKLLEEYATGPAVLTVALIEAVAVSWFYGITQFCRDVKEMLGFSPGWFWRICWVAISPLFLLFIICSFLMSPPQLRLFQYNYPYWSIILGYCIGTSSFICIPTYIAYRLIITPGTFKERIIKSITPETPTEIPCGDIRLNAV
UniProt Q01959, whole entry: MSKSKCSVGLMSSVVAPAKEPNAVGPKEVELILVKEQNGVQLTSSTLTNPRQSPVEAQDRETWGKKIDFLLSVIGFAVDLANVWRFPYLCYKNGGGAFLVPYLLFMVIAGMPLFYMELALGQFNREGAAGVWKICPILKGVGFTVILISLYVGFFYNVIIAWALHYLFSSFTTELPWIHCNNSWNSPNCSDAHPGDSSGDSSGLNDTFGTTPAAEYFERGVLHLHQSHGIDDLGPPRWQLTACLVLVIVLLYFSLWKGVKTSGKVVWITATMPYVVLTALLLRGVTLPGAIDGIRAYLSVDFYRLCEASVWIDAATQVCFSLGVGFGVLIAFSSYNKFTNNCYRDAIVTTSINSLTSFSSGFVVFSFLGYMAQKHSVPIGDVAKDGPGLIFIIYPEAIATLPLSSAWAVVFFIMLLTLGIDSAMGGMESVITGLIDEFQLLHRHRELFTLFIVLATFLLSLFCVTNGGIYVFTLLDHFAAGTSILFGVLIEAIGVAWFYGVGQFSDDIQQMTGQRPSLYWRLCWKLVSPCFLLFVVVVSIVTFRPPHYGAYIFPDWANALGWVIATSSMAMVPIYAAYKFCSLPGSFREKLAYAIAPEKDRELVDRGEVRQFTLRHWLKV
UniProt P08183, whole entry: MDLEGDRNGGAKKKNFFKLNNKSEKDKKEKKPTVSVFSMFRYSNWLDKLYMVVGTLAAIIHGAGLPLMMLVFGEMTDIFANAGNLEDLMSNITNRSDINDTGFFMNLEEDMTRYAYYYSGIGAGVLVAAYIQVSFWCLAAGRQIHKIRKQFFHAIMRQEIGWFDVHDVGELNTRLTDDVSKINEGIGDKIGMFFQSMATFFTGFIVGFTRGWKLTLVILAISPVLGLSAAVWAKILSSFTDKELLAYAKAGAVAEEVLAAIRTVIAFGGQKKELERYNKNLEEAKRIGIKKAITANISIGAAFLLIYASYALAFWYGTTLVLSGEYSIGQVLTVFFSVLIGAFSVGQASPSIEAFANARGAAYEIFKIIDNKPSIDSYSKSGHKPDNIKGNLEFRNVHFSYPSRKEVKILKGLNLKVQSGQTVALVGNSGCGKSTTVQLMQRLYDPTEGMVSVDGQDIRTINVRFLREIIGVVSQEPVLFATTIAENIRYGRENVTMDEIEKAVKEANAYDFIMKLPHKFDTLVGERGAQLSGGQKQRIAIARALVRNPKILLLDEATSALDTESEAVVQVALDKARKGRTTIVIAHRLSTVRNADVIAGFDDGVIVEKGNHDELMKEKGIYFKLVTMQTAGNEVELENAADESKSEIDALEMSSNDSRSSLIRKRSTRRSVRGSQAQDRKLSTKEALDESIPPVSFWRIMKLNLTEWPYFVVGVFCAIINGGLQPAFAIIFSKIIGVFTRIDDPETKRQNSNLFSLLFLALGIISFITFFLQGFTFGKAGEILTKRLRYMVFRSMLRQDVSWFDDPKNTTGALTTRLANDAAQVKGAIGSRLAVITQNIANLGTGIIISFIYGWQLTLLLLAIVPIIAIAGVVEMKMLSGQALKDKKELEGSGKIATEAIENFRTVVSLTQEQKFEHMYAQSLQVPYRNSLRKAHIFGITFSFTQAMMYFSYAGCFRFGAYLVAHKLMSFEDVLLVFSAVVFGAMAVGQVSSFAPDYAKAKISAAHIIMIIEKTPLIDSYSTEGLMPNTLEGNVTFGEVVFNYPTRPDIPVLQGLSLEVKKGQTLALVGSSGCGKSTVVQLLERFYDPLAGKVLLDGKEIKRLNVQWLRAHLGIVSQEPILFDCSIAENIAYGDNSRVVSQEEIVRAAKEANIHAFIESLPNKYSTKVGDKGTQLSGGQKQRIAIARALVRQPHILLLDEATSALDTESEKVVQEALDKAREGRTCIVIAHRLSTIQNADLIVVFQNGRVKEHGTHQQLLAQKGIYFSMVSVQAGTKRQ

Tests used:
[1] = In vitro intrinsic clearance in rat liver microsomes
[2] = Lipophilicity by Chromatographic Hydrophobicity Index (CHI LogD); format: physicochemical; conditions: pH 7.4, HPLC-UV
Procedure: Methods and Procedure: The methods employed herein comply with previously described procedures to assure data integrity and adherence to GLP regulations. Briefly, a CHI value was determined by comparing the retention time of a test compound to a linear curve based on a set of calibration compounds with known CHI values. The resultant CHI value can be further converted to a CHI Log D value using an established linear regression equation.
Reference compounds with known CHI values, including theophylline, phenyltetrazole, benzymidazole, colchicine, phenyltheophylline, acetophenone, indole, propiophenone, butyrophenone, valerophenone, were used to create a calibration line. Test compounds (10 mM) were prepared in DMSO on the same day of the experiment, when feasible. For sample preparation, 10 μL of test solution was diluted with 190 μL of a solution of Ammonium Acetate solution (50 mM) and Acetonitrile (1:1) pH7.4, which was then mixed via shaking at room temperature for 10 minutes. Test solutions were compared with the reference compounds via HPLC-UV, as described in Example 19. The gradient was calibrated by determining the retention time of each reference compound on a reverse phase LC system at a pH of 7.4. […]
The test compounds were analyzed on the same system as the test mix. […]

SERT (serotonin release) = SERT (serotonin release) (Rattus norvegicus, UniProt P31652); assay: Serotonin release filtration assay in rat cortex synaptosomes; format: cell-based; conditions: % of release by 50 μM MDMA
Procedure: (§1) Methods and Procedure—Release: The potency of the disclosed compounds for stimulating dopamine (DA) release was measured by an endpoint release filtration assay in a 96-well format using rat synaptosomes, essentially as described by Sandtner et al., Mol. Pharmacol., 2016; 89(1):165-75, and Baumann et al., Neuropsychopharmacol., 2013; 38:552-562, with some variations.
(§2) One male rat was sacrificed and striatum/cortex regions were dissected over ice. The striatum portions were weighed and put in a glass tube for homogenization, containing ice-cold 0.32 M sucrose (dilution 1:24 w/v), while the frontal cortex tissue was diluted in ice-cold 0.32 M sucrose, 1:20 w/v. Tissues were homogenized and centrifuged for 10 mins at 1000×g. The two supernatants from striatum and cortex (crude synaptosomes) were retained on ice until use.
Test compounds were then serially diluted 1:4 in neat DMSO as concentration-response curves (CRC) of 11 points. […]
The raw data (cpm) from residual radioactivity onto the filter were elaborated for the determination of pEC50/EC50 values. Specifically, the compound effect was expressed as the percent of maximal release obtained with 50 μM MDMA (100% release) in comparison to vehicle (0.5% DMSO, 0% release). […] In each plate, for both 0% and 100% of release, the signal window is monitored performing Z′ calculations using raw data of four replicates. […]

DAT (dopamine release) = DAT (dopamine release) (Rattus norvegicus, UniProt P23977); assay: Dopamine release filtration assay in rat striatal synaptosomes; format: cell-based; conditions: % of release by 50 μM MDMA
Procedure: as §1
as §2, with “The two supernatants from striatum and cortex (crude synaptosomes) were retained on ice until use.” left out
^3H-Dopamine was added to the tube containing the crude striatal synaptosomes preparation, diluted 1:20 (v/v) in complete Krebs-phosphate buffer, and was incubated at RT and gently mixed for 60 minutes. […] The retained radioactivity was counted in a scintillation counter after the addition of 50 μL/well Microscint-20.
The raw data (cpm) from residual radioactivity onto the filter were elaborated for the determination of pEC50/EC50 values. Specifically, the compound effect was expressed as the percent of maximal release obtained with 50 μM MDMA (100% release) in comparison to vehicle (0.5% DMSO, 0% release). […]

[3] = In vitro intrinsic clearance in human liver microsomes
[4] = target: SERT (serotonin transporter) (Homo sapiens, UniProt P31645); assay: SERT uptake scintillation proximity assay, inhibition of [3H]-serotonin uptake in hSERT-CHO cells; format: cell-based
Procedure: (§3) Overview: Eighty-eight compounds were tested in SERT (serotonin transporter) and DAT (dopamine transporter) uptake assays (completed as scintillation proximity assays, or SPAs, in a recombinant CHO cell line). Fifty-two compounds were tested in release assays for 5-HT and DA release in rat synaptosomes.
In addition, hSERT-CHO cells were detached using Versene and added at a density of 150,000 cells/mL to the SPA Mixture, which contains the following components in the Assay Buffer described above: 0.5 mg/mL SPA Imaging beads (RPNQ0001, PerkinElmer), 10 μM pargyline and 35 nM of [^3H]-serotonin (NET498, PerkinElmer). […] Plates were sealed with a Top-seal A and read using a Microbeta counter (PerkinElmer) after 120 minutes of incubation at room temperature.
For both tests, the raw experimental data (cpm) were elaborated for the determination of pIC50/IC50 values as % inhibition of specific uptake. Concentration-response curves of MDMA, MDDMA, citalopram and GBR-12909 were used as internal standards in all experiments, and the signal window was monitored in each plate performing Z′ calculations, as described in Zhang et al., J. Biomol. […]

human DAT = human DAT (Homo sapiens, UniProt Q01959); assay: DAT uptake scintillation proximity assay, inhibition of [3H]-dopamine uptake in hDAT-CHO cells; format: cell-based
Procedure: as §3
Methods and Procedure-Uptake: The potency of the compounds described herein for inhibiting DAT function was measured using an uptake assay in a recombinant CHO cell line stably expressing human DAT (hDAT-CHO). Potency was measured in terms of pIC50 by testing for inhibition of [^3H]-dopamine uptake in hDAT-CHO cells in a 384-well format scintillation proximity assay (SPA).
Briefly, on experiment days, hDAT-CHO cells were detached using Versene and added at a density of approximately 300,000 cells/mL to the SPA Mixture, which contains the following components in Assay Buffer (20 mM HEPES, 145 mM NaCl, 5 mM KCl, 2 mM CaCl2, 1 mM MgCl2, 5.5 mM glucose, 0.01% Pluronic F127, pH 7.3): 0.75 mg/mL SPA Imaging beads (RPNQ0001, PerkinElmer), 10 μM pargyline and 80 nM of [^3H]-dopamine (NET673, PerkinEImer). […] Plates were sealed with a Top-seal A and read using a Microbeta counter (PerkinEImer) after 45 minutes of incubation at room temperature. […]

MDCKII cells = assay: Apparent permeability (Papp AB) in MDCKII cells; conditions: pH 7.4, apical to basolateral, 60 min
[5] = target: human P-glycoprotein transporter (Homo sapiens, UniProt P08183); assay: P-gp substrate assessment, efflux ratio in MDCKII-MDR1 cells

For `Cc1ccc(C23CNC(CO2)C3)cc1C` (racemic), the “Intrinsic clearance (μL/min/mg protein) rat” value [1] was 136 μL/min/mg protein, the Chi LogD [2] was 0.84 and the “SERT release pEC50” value (SERT (serotonin release)) was 7.33. The “DAT release pEC50” value (DAT (dopamine release)) was 4.71, the “Intrinsic clearance (μL/min/mg protein) human” value [3] was 12 μL/min/mg protein and the “SERT uptake pIC50” value [4] was 6.52. The “DAT update pIC50” value (human DAT) was 4.77, the “Papp AB in MDCKII cells” value (MDCKII cells) was 24.4 ×10⁻⁶ cm/s and the “Substrate Classification” value ([5]; P-gp substrate classification, MDCKII-MDR1 cells) was “pGP-NO”. It also gave a B/A ratio in MDCKII-MDR1 cells ([5]; efflux ratio, P-gp substrate if ratio >2 and reduced by inhibitor) of 0.81.
